Measured values: patent publication US4672036A, “Pure cultures of Kibdelsporangium aridum Shearer gen. nov., sp. nov. ATCC 39323 and mutants thereof” (SmithKline Beckman Corporation, priority 1985, dated 1987)

Test system: Swine in vitro model
Test: swine in vitro model (growth promotant activity)

Row | Compound | GLU (glucose) | VFA (total of volatile fatty acids) (1.67 ppm) | VFA (total of volatile fatty acids) (16.67 ppm)
1 | CCCCCCCCCC(=O)N[C@H]1[C@H](Oc2c3cc4cc2Oc2c(Cl)cc(cc2Cl)[C@@H](O)[C@@H]2NC(=O)[C@H](NC(=O)[C@@H]4NC(=O)[C@H]4NC(=O)[C@H](NC(=O)[C@H](NC)c5ccc(O)c(c5)Oc5cc(O)c(Cl)c4c5)[C@H](O)c4ccc(c(Cl)c4)O3)c3ccc(O)c(c3)-c3c(O[C@H]4O[C@H](CO)[C@@H](O)[C@H](O)[C@@H]4O)cc(O)cc3[C@@H](C(=O)O)NC2=O)O[C@H](C(=O)O)[C@@H](O)[C@@H]1O [AAD 216A] | 97 % Control |  | 
2 | Virginiamycin |  | 248 % Control | 130 % Control
